Legend:
Settings in all cases: in vivo
[1] = Half life in Swiss Webster mouse at 1 mg/kg, iv by HPLC-MS/MS analysis; format: ADME, organism-based; parameters: dose 1 mg/kg, route intravenous
Method in brief: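 Male Swiss Webster mice, n = 3 per time point. For i.v., the compound was dissolved in sterile water, diluted 1:1 with 2× saline, and given as a tail-vein bolus over ~10–20 s. For p.o., it was given by gavage in sterile water. Dose volume was 5 ml/kg. Terminal plasma was taken from 5 min to 72 h and measured by HPLC-MS/MS (calibration 2.5–10,000 nM). Parameters came from noncompartmental analysis.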

Mus musculus = assay: AUC (0 to infinity) in Swiss Webster mouse at 70 mg/kg, po by HPLC-MS/MS analysis; format: ADME, organism-based, Plasma; parameters: time infinity, dose 70 mg/kg, route oral
[2] = Clearance in Swiss Webster mouse at 4.9 mg/kg, iv by HPLC-MS/MS analysis; format: ADME, organism-based; parameters: dose 4.9 mg/kg, route intravenous

Structure (SMILES)	half-life [1] [h]	AUC (Mus musculus) [µM·h]	clearance [2] [L/h/kg]
CC(C)Oc1cc(NC(=N)c2ccccn2)ccc1-c1ccc(-c2ccc(NC(=N)c3ccccn3)cc2OC(C)C)o1	22	13.2	–
CCOc1cc(NC(=N)c2ccccn2)ccc1-c1ccc(-c2ccc(NC(=N)c3ccccn3)cc2OCC)o1	–	–	1.68

From ChEMBL document CHEMBL1275590, “Novel arylimidamides for treatment of visceral leishmaniasis” (Antimicrob Agents Chemother, 2010)
